Data on 2 compounds can be found in ChEMBL document CHEMBL5505961, “RIPK1 inhibitors: A key to unlocking the potential of necroptosis in drug development” (Eur J Med Chem, 2024).

Chains of the proteins cited; added tags and fusions are not shown. Lines headed by an entry give the natural chain unless they say otherwise; changes in a name come on top.
UniProt Q9Y572: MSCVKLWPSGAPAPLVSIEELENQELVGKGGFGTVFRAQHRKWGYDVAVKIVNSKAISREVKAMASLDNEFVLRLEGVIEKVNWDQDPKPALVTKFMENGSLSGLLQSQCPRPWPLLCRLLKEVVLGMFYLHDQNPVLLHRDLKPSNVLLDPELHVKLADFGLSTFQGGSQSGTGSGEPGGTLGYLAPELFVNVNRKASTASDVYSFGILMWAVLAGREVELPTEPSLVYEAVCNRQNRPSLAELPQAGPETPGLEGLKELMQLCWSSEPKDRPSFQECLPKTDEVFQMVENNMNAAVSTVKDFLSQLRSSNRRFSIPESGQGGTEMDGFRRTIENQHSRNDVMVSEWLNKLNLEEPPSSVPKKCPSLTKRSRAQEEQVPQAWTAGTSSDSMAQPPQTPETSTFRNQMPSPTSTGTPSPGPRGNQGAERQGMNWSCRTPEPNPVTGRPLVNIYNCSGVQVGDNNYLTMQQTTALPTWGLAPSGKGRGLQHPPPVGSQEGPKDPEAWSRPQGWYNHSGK

The target in test [1] is T1, Receptor-interacting serine/threonine-protein kinase 1 (Homo sapiens, UniProt Q13546).
T1 sequence (Q13546 whole entry): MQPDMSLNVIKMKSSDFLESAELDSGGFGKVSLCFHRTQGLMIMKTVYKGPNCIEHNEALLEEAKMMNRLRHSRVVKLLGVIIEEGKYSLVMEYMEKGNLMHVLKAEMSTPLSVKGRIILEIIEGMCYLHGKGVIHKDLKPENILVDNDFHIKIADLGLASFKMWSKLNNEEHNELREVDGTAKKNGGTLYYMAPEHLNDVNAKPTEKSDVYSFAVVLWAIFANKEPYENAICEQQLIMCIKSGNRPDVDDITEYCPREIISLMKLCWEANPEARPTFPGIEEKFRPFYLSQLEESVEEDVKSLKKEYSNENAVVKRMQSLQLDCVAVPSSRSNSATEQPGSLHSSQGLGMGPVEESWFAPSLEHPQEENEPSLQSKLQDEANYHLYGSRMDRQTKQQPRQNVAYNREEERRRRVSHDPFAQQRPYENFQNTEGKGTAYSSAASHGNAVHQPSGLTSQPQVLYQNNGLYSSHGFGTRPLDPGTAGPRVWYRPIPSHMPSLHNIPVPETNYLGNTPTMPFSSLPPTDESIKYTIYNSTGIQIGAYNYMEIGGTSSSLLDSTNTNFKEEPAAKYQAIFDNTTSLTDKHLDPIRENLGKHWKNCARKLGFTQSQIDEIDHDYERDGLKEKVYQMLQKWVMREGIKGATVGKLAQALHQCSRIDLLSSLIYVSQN

The target in test [2] is Receptor-interacting serine/threonine-protein kinase 3 (Homo sapiens, UniProt Q9Y572).

The structures appear in SMILES notation.

The compound `Cc1ccc(C(=O)Nc2ccccc2)cc1-c1ccc2nc(NCCN3CCOCC3)ncc2c1` had a Kd in test [1] of 199 nM. Regarding `O=C(NCCc1ccccc1Cl)c1cn(-c2ccccc2)nn1`, the IC5 in test [2] is under 0.25 µM.
